# Earlier results as cited in patent publication US6347239B1, “Method of evaluating the efficacy of drug on brain nerve cells” (priority 1998, dated 2002).
# Tested on: patients with ALS
# Settings: phase III clinical trials (Bensimon 1994; Lacomblez 1996); cited from earlier work
structure (smiles),measurement,value
"Nc1nc2ccc(OC(F)(F)F)cc2s1 [RILUZOLE, 2-amino-6-trifluoromethoxy-benzothiazole]",survival of patients with ALS,prolong the life
